Test results published in article PMC33344 (BMC Chemical Biology, 2001).
Entries after “also recorded” stand apart in the source; their conditions may differ.

Protein sequences, listed by entry. Tags and fused reporters are not part of them.
UniProt P14600, whole entry: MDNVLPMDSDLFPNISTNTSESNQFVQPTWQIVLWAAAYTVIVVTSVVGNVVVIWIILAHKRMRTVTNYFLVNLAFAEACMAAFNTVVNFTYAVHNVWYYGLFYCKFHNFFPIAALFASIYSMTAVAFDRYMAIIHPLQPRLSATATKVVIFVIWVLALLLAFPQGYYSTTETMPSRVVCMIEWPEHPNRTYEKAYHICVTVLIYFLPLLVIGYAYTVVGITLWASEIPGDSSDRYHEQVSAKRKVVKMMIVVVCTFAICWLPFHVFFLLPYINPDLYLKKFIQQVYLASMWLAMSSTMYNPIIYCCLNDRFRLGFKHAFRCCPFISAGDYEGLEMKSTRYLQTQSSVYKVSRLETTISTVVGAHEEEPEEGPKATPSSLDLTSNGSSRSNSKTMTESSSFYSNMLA

Columns and labels:
rat SP receptor (rSPR) = rat SP receptor (rSPR) (Rattus norvegicus, UniProt P14600); experiment: Radioligand competition binding with [125I] SP on CHO cells expressing the rSPR; details: 50 pM [125I] SP, competitor up to 1 μM
[1] = target: T1, rSPR expressed in CHO cells (Rattus norvegicus, UniProt P14600); experiment: Epifluorescence microscopy, direct labeling of rSPR-transfected CHO cells; type: cell-based; details: 100 nM, 2 hrs at 4°C, rinsed and fixed
[2] = target: T1, rSPR expressed in CHO cells; experiment: Ca++ elevation in rSPR-expressing CHO cells; type: cell-based; details: concentrations up to 10 nM, % of ionomycin response

membrane staining of rSPR-expressing CHO cells [1]: did not stain
Ca++ response at the rSPR (in words) [2]: did not elicit specific Ca^++ responses
Substance: Alexa 488-SP: Substance P with Alexa 488 covalently linked at Lys3; Molecular Probes product S-13426
competition with [125I] SP for binding at the rSPR (in words) (rat SP receptor (rSPR)): did not compete; also recorded: unable to displace the radioisotope
